29 substances from US20250170266A1 (ZYMEWORKS BC INC., priority 2022, published 2025) can be followed below.

In assay [1] the test system is RAW-Blue™ cells. The assay can be described thus: ISAC reporter gene assay, RAW-Blue cells co-cultured with NCI_N87, SEAP readout. In kind it is cell-based, mouse. As to conditions: RAW-Blue+NCI_N87 co-culture, 48 hours. The method, then: The in vitro activity of ISACs was also assessed in a reporter gene assay using mouse RAW-Blue™ cells (Invivogen, San Diego, CA). Briefly, RAW-Blue™ cells were maintained in growth media recommended by the vendor until assay day. On assay day, RAW-Blue™ cells were scraped from tissue culture flasks and resuspended in assay media (DMEM+10% FBS). 100,000 RAW-Blue™ cells were added to each well of plates containing an ISAC. For ISAC preparation, a 5-fold 7-point titration from 100 nM in assay media was performed. For tumor cell preparation, NCI_N87 tumor cells were propagated in tissue culture plates until they reach 90% confluency and detached from tissue culture plates with TrypLE™ Express Enzyme (ThermoFisher). 100,000 tumor cells were added to wells containing ISAC with RAW-Blue™ cells. The co-culture was incubated with ISAC at 37° C.+5% CO2 for 48 hours before 10 μl supernatant was harvested. To the supernatant, 90 ul QUANTI-Blue™ Solution (Invivogen, San Diego, CA) was added and the amount of secreted embryonic alkaline phosphatase (SEAP) was determined by measuring absorbance (620 nm) using a Synergy™ H1 microplate reader.
(§1) Trastuzumab coupled to the benchmark compound (e.g., without the cysteine-capped hemisuccinimide moiety, which can be a result of in vivo metabolism and constitute an active metabolite upon cleavage from the targeting moiety) was used as a positive control in this study. The following “activated” version of the benchmark was used for coupling to Trastuzumab: […]
In general terms: In a reporter assay the amount or activity of a reporter protein is the signal.

The test system of assay [2] is mouse splenocyte+NCI_N87 co-culture. The assay can be described thus: ISAC in vitro activity, mIL6 from mouse splenocyte+NCI_N87 co-culture. It is filed as cell-based. As to conditions: 24 hours. As for the experimental part:
Human PBMCs and mouse splenocytes were isolated as described above in EXAMPLE 3. On assay day, human PBMCs or mouse splenocytes were thawed in warm assay media (RPMI+10% FBS). Cells were spun down and resuspended in fresh assay buffer. 100,000 cells were added to each well of plates containing an ISAC. For ISAC preparation, a 5-fold 7-point titration from 100 nM in assay media was performed. For tumor cell preparation, NCI_N87 tumor cells were propagated in tissue culture plates until they reach 90% confluency and detached from tissue culture plates with TrypLE™ Express Enzyme (ThermoFisher). 10,000 tumor cells were added to wells containing antibody drug conjugate with human PBMCs or with mouse splenocytes. The co-culture was incubated with ISAC at 37° C.+5% CO2 for 24 hours before supernatant was harvested. hIL6 and mIL6 were quantified from the human PBMC+NCI_N87 co-culture supernatant and mouse splenocyte+NCI_N87 co-culture supernatant, respectively, using homogeneous time resolved fluorescence (Cisbio).
as §1

Assay [3] concerns human PBMC+NCI_N87 co-culture. Briefly: ISAC in vitro activity, hIL6 from human PBMC+NCI_N87 co-culture. In kind it is cell-based. Particulars: 24 hours.

Regarding Tras-MC-Compound 100, the EC50 was found to be 0.298 nM in assay [1] and 0.161 nM in assay [2]. On the same counts, the results for Tras-MT-Compound 100 are 0.52 nM and 0.0866 nM. As for Tras-MT-VC-PABC-Compound 100, the EC50 in assay [1] was 0.249 nM. Further, the “mIL6 EC50 (pM)” value in assay [2] was “inactive”. Regarding Tras-MT-VC-PABC-Compound 105, the 50% effective concentration (EC50) in assay [1] came to 0.23 nM; in assay [2], 0.626 nM.

Consider Tras-MT-VC-PABC-Compound 106, for which the results for the EC50 in assay [1] and in assay [2] were 0.05 nM and 0.131 nM, respectively. Tras-MT-VC-PABC-Compound 110: the half-maximal effective concentration (EC50) stood at 0.229 nM in assay [1] and 0.163 nM in assay [2].

As to Tras-MT-VC-PABC-Compound 111, the EC50 in assay [1] was 0.0659 nM. Further, the “mIL6 EC50 (pM)” value in assay [2] is “inactive”.

Regarding Tras-MT-VC-PABC-Compound 112, in assay [1], the EC50 came out at 0.295 nM. The “mIL6 EC50 (pM)” value in assay [2] was “inactive”. For Tras-MT-VC-PABC-Compound 132, the figures for the EC50 in assay [1] and in assay [2] were 0.359 nM and 0.131 nM, respectively. With Tras-MT-VC-PABC-Compound 139, the EC50 in assay [1] stood at 0.63 nM; in assay [2] it was 0.155 nM. For Tras-MT-VC-PABC-Compound 140, the 50% effective concentration (EC50) in assay [1] worked out at 0.312 nM; in assay [2] it was 0.0904 nM. Take Tras-MT-VC-PABC-Compound 144: the EC50 in assay [1] was 0.441 nM. The “mIL6 EC50 (pM)” value in assay [2] was “inactive”. Tras-MT-VC-PABC-Compound 145: the half-maximal effective concentration (EC50) in assay [1] amounted to 0.162 nM; in assay [2], 0.0364 nM. Besides, the “hIL6 EC50 (pM)” value in assay [3] was “inactive”.

Turning to Tras-MT-VC-PABC-Compound 150, the concentration for a half-maximal effect (EC50) in assay [1] came to 0.159 nM. The “mIL6 EC50 (pM)” value in assay [2] is “inactive”. Take Tras-MT-VC-PABC-Compound 152: the concentration giving a half-maximal response (EC50) in assay [1] was found to be 0.251 nM. In addition, in assay [2], the “mIL6 EC50 (pM)” value is “inactive”. As to Tras-MT-VC-PABC-Compound 166, the EC50 in assay [1] came to 7.78 nM. In addition, the “mIL6 EC50 (pM)” value in assay [2] is “inactive”. On to Tras-MT-VC-PABC-Compound 169, for which the concentration giving a half-maximal response (EC50) in assay [2] came out at 2.56 nM. In turn, Tras-MT-VC-PABC-Compound 172 came in with an EC50 in assay [2] of 0.471 nM.

In turn, Tras-MT-VC-PABC-Compound 173 showed a half-maximal effective concentration (EC50) in assay [2] of 0.193 nM.

In turn, Tras-MT-VC-PABC-Compound 180 came in with a 50% effective concentration (EC50) in assay [2] of 2.62 nM.

As for Tras-MT-VC-PABC-Compound 187, in assay [1], the “RAW-Blue EC50 (pM)” value is listed as “Inactive”. Moreover, in assay [2], the “mIL6 EC50 (pM)” value is “inactive”. The “hIL6 EC50 (pM)” value in assay [3] was “inactive”. Take Tras-MT-VC-PABC-Compound 188: in assay [1], the 50% effective concentration (EC50) came to 0.472 nM. Also, in assay [2], the “mIL6 EC50 (pM)” value is “inactive”. Also, the “hIL6 EC50 (pM)” value in assay [3] is “inactive”. Consider Tras-MT-VK-PABC-Compound 100, for which, in assay [1], the EC50 is 0.129 nM. Further, the “mIL6 EC50 (pM)” value in assay [2] was “inactive”. In the case of Tras-MT-VK-PABC-Compound 107, the “RAW-Blue EC50 (pM)” value in assay [1] is “inactive”. Moreover, the “mIL6 EC50 (pM)” value in assay [2] is “inactive”. The “hIL6 EC50 (pM)” value in assay [3] was “inactive”. With Tras-MT-VK-PABC-Compound 108, the “RAW-Blue EC50 (pM)” value in assay [1] was “Inactive”. Further, in assay [2], the “mIL6 EC50 (pM)” value was “inactive”. The “hIL6 EC50 (pM)” value in assay [3] is “inactive”. Tras-MT-VK-PABC-Compound 159 gave a concentration giving a half-maximal response (EC50) in assay [2] of 7.66 nM.

As to Tras-MT-VK-PABC-Compound 161, in assay [2], the 50% effective concentration (EC50) turned out to be 3.87 nM. Tras-MT-VK-PABC-Compound 167 displayed a half-maximal effective concentration (EC50) in assay [2] of 3.93 nM.

As to Tras-MT-VK-PABC-Compound 182, in assay [2], a half-maximal response (EC50) required 0.82 nM.

By EC50 is commonly meant the concentration giving half of the maximal effect.
